These results are taken from patent publication US20230357179A1, “RAF KINASE INHIBITORS AND METHODS OF USE THEREOF” (Deciphera Pharmaceuticals, LLC, priority 2021, published 2023).

Protein sequences, listed by entry. Tags and fused reporters are not part of them. Lines headed by an entry give the natural chain unless they say otherwise; changes in a name come on top. Chains listed by the source or under a name are the forms on record and can include a tag or linker. Residues count along the entry.
UniProt P15056, 416-766: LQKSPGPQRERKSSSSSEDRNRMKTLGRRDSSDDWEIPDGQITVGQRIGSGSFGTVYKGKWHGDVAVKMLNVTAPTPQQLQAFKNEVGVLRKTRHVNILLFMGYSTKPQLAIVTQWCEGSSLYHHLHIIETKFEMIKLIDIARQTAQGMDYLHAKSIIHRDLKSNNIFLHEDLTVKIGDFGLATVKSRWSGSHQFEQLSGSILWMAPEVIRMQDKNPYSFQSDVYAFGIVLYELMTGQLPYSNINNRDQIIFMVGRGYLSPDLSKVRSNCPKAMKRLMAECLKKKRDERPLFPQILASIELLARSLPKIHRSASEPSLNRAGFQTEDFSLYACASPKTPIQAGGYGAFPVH
UniProt P15056, 416-766 V600E: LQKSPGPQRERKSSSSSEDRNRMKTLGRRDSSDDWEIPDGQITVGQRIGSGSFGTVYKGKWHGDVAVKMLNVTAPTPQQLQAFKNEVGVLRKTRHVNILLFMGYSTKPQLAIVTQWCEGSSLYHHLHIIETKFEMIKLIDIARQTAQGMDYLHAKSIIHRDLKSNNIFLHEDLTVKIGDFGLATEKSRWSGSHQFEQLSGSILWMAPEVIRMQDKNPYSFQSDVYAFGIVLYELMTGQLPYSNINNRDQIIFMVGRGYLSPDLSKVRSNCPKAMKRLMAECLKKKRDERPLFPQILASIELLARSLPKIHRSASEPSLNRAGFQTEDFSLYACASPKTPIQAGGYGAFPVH
UniProt P04049, 307-648 Y340D/Y341D: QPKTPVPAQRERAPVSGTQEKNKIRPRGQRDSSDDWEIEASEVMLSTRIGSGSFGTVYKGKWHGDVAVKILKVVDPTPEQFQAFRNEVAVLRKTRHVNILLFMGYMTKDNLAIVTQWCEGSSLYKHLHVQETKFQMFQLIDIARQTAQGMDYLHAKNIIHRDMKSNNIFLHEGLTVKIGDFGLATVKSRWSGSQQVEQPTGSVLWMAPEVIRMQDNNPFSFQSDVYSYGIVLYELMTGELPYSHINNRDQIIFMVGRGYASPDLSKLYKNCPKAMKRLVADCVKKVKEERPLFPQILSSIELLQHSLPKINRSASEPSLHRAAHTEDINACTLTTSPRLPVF
UniProt P10398, 273-606 with tags or gaps Y301D/Y302D: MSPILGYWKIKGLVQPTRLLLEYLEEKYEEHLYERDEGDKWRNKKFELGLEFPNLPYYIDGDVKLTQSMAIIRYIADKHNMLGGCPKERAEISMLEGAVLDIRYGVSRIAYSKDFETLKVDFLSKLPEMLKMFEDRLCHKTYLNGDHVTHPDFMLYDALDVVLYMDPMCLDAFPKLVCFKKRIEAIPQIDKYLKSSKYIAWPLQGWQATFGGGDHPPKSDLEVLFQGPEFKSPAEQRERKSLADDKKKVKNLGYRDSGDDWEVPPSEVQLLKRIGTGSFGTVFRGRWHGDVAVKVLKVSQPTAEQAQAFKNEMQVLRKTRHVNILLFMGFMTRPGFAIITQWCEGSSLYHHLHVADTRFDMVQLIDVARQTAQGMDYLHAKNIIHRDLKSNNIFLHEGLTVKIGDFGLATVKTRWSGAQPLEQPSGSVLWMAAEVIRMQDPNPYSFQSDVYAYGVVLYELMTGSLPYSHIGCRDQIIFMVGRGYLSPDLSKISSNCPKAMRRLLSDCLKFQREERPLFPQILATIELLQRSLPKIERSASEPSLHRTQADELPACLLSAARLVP

Assay [1] deals with B-Raf (V600E) kinase (Homo sapiens, UniProt P15056, V600E). Nature of the assay: Biochemical assay for B-Raf (V600E).1 (coupled pyruvate kinase/lactate dehydrogenase). The conditions noted are these: read-out: BRAF V600E.1 IC50. Here is the method:
Biochemical Assay for B-Raf (V600E).1
Activity of B-Raf (V600E) (SEQ. ID NO: 4) kinase was determined spectroscopically using a coupled pyruvate kinase/lactate dehydrogenase assay that continuously monitors the ATP hydrolysis-dependent oxidation of NADH (e.g., Schindler et al., Science, 2000, 289, 1938-1942). Assays were conducted in 384-well plates (100 μL final volume) using 0.03 nM B-Raf (SignalChem), 1.5 units pyruvate kinase, 2.1 units lactate dehydrogenase, 1 mM phosphoenol pyruvate, 0.28 mM NADH, 30.1 nM MEK (SignalChem), and 1 mM ATP in assay buffer (100 mM Tris, pH 7.5, 15 mM MgCl2, 0.5 mM DTT, 0.1% octyl-glucoside, 0.002% (w/v) BSA, and 0.002% Triton X-100). Inhibition of B-Raf (V600E) was measured by adding serial diluted test compound (final assay concentration of 1% DMSO). A decrease in absorption at 340 nm was monitored continuously for 6 h at 30° C. on a multi-mode microplate reader (BioTek). The reaction rate was calculated using the 3 to 4 h time frame. The reaction rate at each concentration of compound was converted to percent inhibition using controls (i.e., reaction with no test compound and reaction with a known inhibitor) and IC50 values were calculated by fitting a four-parameter sigmoidal curve to the data using Prism (GraphPad software).

The target of assay [2] is C-Raf kinase (Homo sapiens, UniProt P04049, Y340D/Y341D). Nature of the assay: Biochemical assay for C-Raf.1 (coupled pyruvate kinase/lactate dehydrogenase). The following applies: read-out: CRAF.1 IC50. Here is the method: Biochemical Assay for C-Raf.1
(§1) Activity of C-Raf kinase (SEQ. ID NO: 3) was determined spectroscopically using a coupled pyruvate kinase/lactate dehydrogenase assay that continuously monitors the ATP hydrolysis-dependent oxidation of NADH (e.g., Schindler et al., Science, 2000, 289, 1938-1942). Assays were conducted in 384-well plates (100 μL final volume) using 0.43 nM C-Raf (Sigma), 1.5 units pyruvate kinase, 2.1 units lactate dehydrogenase, 1 mM phosphoenol pyruvate, 0.28 mM NADH, 30.1 nM MEK (SignalChem), and 1 mM ATP in assay buffer (100 mM Tris, pH 7.5, 15 mM MgCl2, 0.5 mM DTT, 0.1% octyl-glucoside, 0.002% (w/v) BSA, and 0.002% Triton X-100). Inhibition of C-Raf was measured by adding serial diluted test compound (final assay concentration of 1% DMSO). A decrease in absorption at 340 nm was monitored continuously for 6 h at 30° C. on a multi-mode microplate reader (BioTek). The reaction rate was calculated using the 4 to 5 h time frame. The reaction rate at each concentration of compound was converted to percent inhibition using controls (i.e., reaction with no test compound and reaction with a known inhibitor) and IC50 values were calculated by fitting a four-parameter sigmoidal curve to the data using Prism (GraphPad software).

Assay [3] addresses B-Raf kinase (Homo sapiens, UniProt P15056). Nature of the assay: Biochemical assay for B-Raf.1 (coupled pyruvate kinase/lactate dehydrogenase). The following applies: read-out: BRAF.1 IC50. Here is the method:
Biochemical Assay for B-Raf.1
as §1, with “B-Raf” for “C-Raf”, “2)” for “3)”, “0.13” for “0.43”

The target in assay [4] is A-Raf kinase (Homo sapiens, UniProt P10398, Y301D/Y302D). Nature of the assay: Biochemical assay for A-Raf.1 (coupled pyruvate kinase/lactate dehydrogenase). The following applies: read-out: ARAF.1 IC50. Here is the method:
Biochemical assay for A-Raf.1
as §1, with “A-Raf” for “C-Raf”, “NO. 1)” for “NO: 3)”, “5.55” for “0.43”

Broadly, the IC50 is the point on the concentration scale where inhibition reaches its midpoint. For `Cc1ccc(NC(=O)NC2CC(C)(C)C2)cc1-c1cc(-c2ccnc(NS(C)(=O)=O)c2)nc(C2CC2)c1`, the IC50 was less than 100 nM in assay [1], less than 100 nM in assay [2], 500 to 1000 nM in assay [3] and more than 1000 nM in assay [4].
